Protein sequences, listed by entry. Tags and fused reporters are not part of them. Residues count along the entry.
UniProt P13290, 23-699: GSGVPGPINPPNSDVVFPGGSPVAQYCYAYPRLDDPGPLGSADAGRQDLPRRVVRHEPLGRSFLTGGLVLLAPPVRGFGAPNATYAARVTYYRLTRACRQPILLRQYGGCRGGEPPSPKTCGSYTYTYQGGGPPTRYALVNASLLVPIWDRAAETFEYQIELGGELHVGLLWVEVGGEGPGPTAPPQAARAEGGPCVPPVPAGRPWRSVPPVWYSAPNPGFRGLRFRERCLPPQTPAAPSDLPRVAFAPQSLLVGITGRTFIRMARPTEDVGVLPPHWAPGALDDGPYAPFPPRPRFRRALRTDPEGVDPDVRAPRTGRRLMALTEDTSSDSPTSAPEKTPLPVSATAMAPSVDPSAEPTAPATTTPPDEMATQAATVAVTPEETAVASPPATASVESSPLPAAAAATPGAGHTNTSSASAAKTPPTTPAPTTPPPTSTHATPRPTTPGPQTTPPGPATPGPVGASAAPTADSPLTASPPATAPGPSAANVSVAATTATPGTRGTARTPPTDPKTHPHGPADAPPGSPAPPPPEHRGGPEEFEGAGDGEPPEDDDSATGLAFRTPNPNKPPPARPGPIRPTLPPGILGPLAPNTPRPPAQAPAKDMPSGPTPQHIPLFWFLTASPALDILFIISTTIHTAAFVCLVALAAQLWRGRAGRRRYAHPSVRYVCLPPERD
UniProt P48061, 22-89: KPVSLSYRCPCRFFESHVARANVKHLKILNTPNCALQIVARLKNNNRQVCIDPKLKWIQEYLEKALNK

According to article PMC3271085:

Biological target: soluble, secreted form of HSV-2 glycoprotein G (SgG2) (herpes simplex virus type 2) (UniProt P13290)
Assay: SPR; Biacore X; SgG1 or SgG2 amine-coupled to CM5 chips (dialysed against acetate buffer pH 5.0 for SgG1, pH 5.5 for SgG2); chemokines injected; screening at 100 nM and kinetic conditions as in ref. 16; Biaevaluation 3.2

human CXCL12α (from UniProt P48061-2 22-89) (ligand)
Kd: 6.5 nM
